Active and inactive are the calls of the source. No cut-off for these calls is given here.
Columns and labels:
[1] = molecular target: Toll-like receptor 2 (Homo sapiens) (UniProt O60603); assay: Induction of human TLR2 homodimerization expressed in insect Hi5 cells by size exclusion chromatography
Procedure, shortened: (§1)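 Human TLR1 and TLR2 ectodomains were made in Hi5 insect cells, partially deglycosylated, and had the protein A tag cleaved by thrombin before purification. Protein at 1 μM (each alone, or both together) was incubated with 30 μM ligand in 25 mM HEPES pH 8.0, 150 mM NaCl, 10% DMSO for 4 h at room temperature. Dimer formation was then analysed by analytical gel filtration on Superdex 200.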

The chains behind the UniProt entries cited, without tags or fusion partners. Where a name states a change or a piece, a line headed by the entry shows the natural chain unless it says otherwise.
UniProt O60603, whole entry: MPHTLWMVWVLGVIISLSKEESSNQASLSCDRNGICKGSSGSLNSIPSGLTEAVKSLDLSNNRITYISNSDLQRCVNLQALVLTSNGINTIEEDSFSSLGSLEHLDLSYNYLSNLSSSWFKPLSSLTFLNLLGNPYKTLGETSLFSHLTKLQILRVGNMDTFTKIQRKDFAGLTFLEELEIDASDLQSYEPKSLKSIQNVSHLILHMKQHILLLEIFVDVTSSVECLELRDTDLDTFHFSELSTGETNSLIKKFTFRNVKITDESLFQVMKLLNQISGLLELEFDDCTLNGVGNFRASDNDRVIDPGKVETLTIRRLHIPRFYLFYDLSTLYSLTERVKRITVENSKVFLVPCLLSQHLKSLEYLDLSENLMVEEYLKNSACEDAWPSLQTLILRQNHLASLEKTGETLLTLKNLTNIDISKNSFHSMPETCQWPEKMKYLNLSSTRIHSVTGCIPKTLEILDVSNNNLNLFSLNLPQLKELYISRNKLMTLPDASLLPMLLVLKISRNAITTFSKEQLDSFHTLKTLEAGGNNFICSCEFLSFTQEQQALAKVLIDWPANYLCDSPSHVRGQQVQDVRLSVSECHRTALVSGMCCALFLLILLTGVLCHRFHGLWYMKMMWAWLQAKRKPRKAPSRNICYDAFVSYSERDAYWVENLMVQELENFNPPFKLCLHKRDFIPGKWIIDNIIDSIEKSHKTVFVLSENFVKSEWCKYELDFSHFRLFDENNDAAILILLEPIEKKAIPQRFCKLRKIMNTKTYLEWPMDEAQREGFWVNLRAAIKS
UniProt Q15399: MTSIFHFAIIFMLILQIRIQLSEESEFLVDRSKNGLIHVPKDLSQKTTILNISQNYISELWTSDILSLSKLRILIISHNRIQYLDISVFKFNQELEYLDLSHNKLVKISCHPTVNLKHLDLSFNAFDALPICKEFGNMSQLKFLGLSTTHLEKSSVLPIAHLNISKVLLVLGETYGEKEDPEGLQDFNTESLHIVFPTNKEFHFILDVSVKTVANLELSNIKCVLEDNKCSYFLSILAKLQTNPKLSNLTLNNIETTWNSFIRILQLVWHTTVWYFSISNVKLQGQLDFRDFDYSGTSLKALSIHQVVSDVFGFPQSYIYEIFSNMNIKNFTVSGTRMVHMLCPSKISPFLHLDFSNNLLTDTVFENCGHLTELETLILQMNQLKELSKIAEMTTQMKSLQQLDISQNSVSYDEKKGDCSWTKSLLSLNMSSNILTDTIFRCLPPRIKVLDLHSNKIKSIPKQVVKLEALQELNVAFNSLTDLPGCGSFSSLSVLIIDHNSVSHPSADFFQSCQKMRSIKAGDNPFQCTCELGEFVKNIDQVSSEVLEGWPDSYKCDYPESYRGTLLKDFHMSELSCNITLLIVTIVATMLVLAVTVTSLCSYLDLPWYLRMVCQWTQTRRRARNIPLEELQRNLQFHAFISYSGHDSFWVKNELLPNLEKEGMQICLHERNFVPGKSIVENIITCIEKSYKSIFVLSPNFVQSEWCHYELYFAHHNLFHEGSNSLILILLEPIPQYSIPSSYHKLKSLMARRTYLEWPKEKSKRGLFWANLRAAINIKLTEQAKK

[2] = molecular target: Toll-like receptor 1/2 (Homo sapiens) (UniProt O60603+Q15399); assay: Induction of human TLR2/TLR1 heterodimerization expressed in insect Hi5 cells by size exclusion chromatography; procedure, shortened: as §1

O=C(N[C@H]1C[C@@H]1c1ccccc1)[C@@H]1CN(C(=O)c2ccc(C(=O)N3C[C@@H](C(=O)N[C@H]4C[C@@H]4c4ccccc4)[C@H](C(=O)N[C@H]4C[C@@H]4c4ccccc4)C3)cc2)C[C@H]1C(=O)N[C@H]1C[C@@H]1c1ccccc1
Activity [1]: Active
Activity [2]: Active
